# scFv variants of Ab-14 (light chain) against a SARS-CoV-2 spike peptide

Values reported by Li et al. 2023, doi:10.1038/s41467-023-39022-2 (FLAb copy).

Target: peptide PDVDLGDISGINAS, taken from heptad repeat 2 (HR2) of SARS-CoV-2 spike.

Parent: Ab-14, a human scFv built as VH, three GGGGS repeats, VL. Only the CDRs of the light chain vary.
VH: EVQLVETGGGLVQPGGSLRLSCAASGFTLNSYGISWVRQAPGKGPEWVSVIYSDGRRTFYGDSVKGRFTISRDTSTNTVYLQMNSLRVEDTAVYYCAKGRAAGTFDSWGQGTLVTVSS
VL: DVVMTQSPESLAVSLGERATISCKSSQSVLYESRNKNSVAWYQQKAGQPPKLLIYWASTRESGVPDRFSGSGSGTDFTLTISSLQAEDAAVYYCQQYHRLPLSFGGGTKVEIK

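Phage display of a naive human antibody library on the peptide gave the parent. This is the validation round: designs drawn from the data on random variants, tested in the same kind of assay. Their group label is 14L_GP_Gen (GP: Gaussian process model; Gen: genetic algorithm; a sequence that several methods proposed may carry one label only). In AlphaSeq, yeast of one mating type display the scFv and yeast of the other type display the target. The frequency of each diploid, read from paired DNA barcodes, reflects how well the two displayed proteins bind. Each replicate has its own calibration line, from reference interactions of the BCL2 family. Mating was done six times.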

The parent's light chain CDRs are KSSQSVLYESRNKNSVA, WASTRES, QQYHRLPLS; each variant's own CDRs replace them letter for letter.
Scale: log10 of Kd in nM, estimated from mating counts; low values are strong binders.
Replicates are averaged; those with no signal do not enter the mean.
"ND" means that the variant was in the library but no mating with the target was seen in that replicate; the authors take this as a sign of poor binding, and no number exists.
In the paper, a design with two or fewer of six values counts as a poor binder.
Of ten entries with the parent sequence, four were seen in most replicates (averages 0.34 to 2.37), three in one and three in none, so single entries are noisy.
Values of this round are not directly comparable with the first-round values of the same sequences.
Three control strains display no target. For all light chain designs, 4% of the pairings with them gave a signal, with a median of 2.64 and one signal in twenty below 1.59, so weak values seen in few replicates may be background. The control count says in how many pairings with the empty strains this scFv gave a signal, with their mean in brackets.

{"CDR-L1": "KLQQSMLYESRNKNSVA", "CDR-L2": "DASTRLS", "CDR-L3": "QQYHRLPLS", "log10 Kd (nM) by replicate": "-0.21 -0.38 -0.29 -0.44 -0.36 -0.20", "mean, log10 nM": "-0.31", "empty controls": "0 of 18"}
{"CDR-L1": "KVSQSWWYESRNKNSVA", "CDR-L2": "NASTRES", "CDR-L3": "QQYHRLPLS", "log10 Kd (nM) by replicate": "0.14 0.02 0.10 -0.06 -0.13 0.14", "mean, log10 nM": "0.03", "empty controls": "1 of 18 (2.50)"}
{"CDR-L1": "KLSQSWLYESRNSNNVA", "CDR-L2": "DASTRES", "CDR-L3": "QQYHRLPLS", "log10 Kd (nM) by replicate": "0.84 0.34 0.68 -0.01 -0.05 ND", "mean, log10 nM": "0.36", "empty controls": "0 of 18"}
{"CDR-L1": "KLDQSDLYESRNKNSVA", "CDR-L2": "NASTRES", "CDR-L3": "QQYHRLPLS", "log10 Kd (nM) by replicate": "0.12 -0.18 -0.23 -0.05 0.03 -0.08", "mean, log10 nM": "-0.06", "empty controls": "0 of 18"}
{"CDR-L1": "KLSQSVLYESRNCNNVA", "CDR-L2": "NASTRES", "CDR-L3": "QQYHRLPLS", "log10 Kd (nM) by replicate": "-0.01 -0.05 -0.26 -0.23 -0.22 -0.21", "mean, log10 nM": "-0.16", "empty controls": "2 of 18 (3.11)"}
{"CDR-L1": "KLSQSVLYESRNKNAVA", "CDR-L2": "DASQRES", "CDR-L3": "QQYHRLPLS", "log10 Kd (nM) by replicate": "-0.38 -0.43 -0.69 -0.54 -0.43 -0.22", "mean, log10 nM": "-0.45", "empty controls": "0 of 18"}
{"CDR-L1": "KLMQSELYESRNKNSVA", "CDR-L2": "EASTRES", "CDR-L3": "QQYHRLPLS", "log10 Kd (nM) by replicate": "0.07 -0.25 -0.32 -0.29 -0.28 -0.05", "mean, log10 nM": "-0.19", "empty controls": "0 of 18"}
{"CDR-L1": "KLYQSVMYESRNKNSVA", "CDR-L2": "NASTRES", "CDR-L3": "QQYHRLPLS", "log10 Kd (nM) by replicate": "0.02 -0.21 -0.18 -0.12 -0.15 -0.05", "mean, log10 nM": "-0.12", "empty controls": "1 of 18 (4.53)"}
{"CDR-L1": "KVQQSWLYESRNKNSVA", "CDR-L2": "DASQRES", "CDR-L3": "QQYHRLPLS", "log10 Kd (nM) by replicate": "-0.21 -0.01 -0.42 -0.52 -0.37 0.05", "mean, log10 nM": "-0.25", "empty controls": "1 of 18 (1.86)"}
{"CDR-L1": "KLQQSVLYESRNKNSVA", "CDR-L2": "NASERES", "CDR-L3": "QQYHRLPLS", "log10 Kd (nM) by replicate": "0.00 -0.16 -0.28 -0.39 -0.19 -0.11", "mean, log10 nM": "-0.19", "empty controls": "2 of 18 (3.05)"}
{"CDR-L1": "KVSQSHLYESRNKNSVA", "CDR-L2": "NASQRES", "CDR-L3": "QQYHRLPLS", "log10 Kd (nM) by replicate": "0.11 -0.07 0.03 -0.26 -0.18 0.04", "mean, log10 nM": "-0.06", "empty controls": "1 of 18 (4.61)"}
{"CDR-L1": "KLSGSFLYESRNKNSVA", "CDR-L2": "DASTRES", "CDR-L3": "QQYHRLPLS", "log10 Kd (nM) by replicate": "-0.17 0.01 -0.15 -0.09 -0.12 0.13", "mean, log10 nM": "-0.07", "empty controls": "0 of 18"}
{"CDR-L1": "KMMQSELYESRNKNSVA", "CDR-L2": "NASQRES", "CDR-L3": "QQYHRLPLS", "log10 Kd (nM) by replicate": "0.18 0.03 0.20 -0.13 0.12 0.21", "mean, log10 nM": "0.10", "empty controls": "0 of 18"}
{"CDR-L1": "KVSQSVLYESRNKNNVA", "CDR-L2": "AASTRES", "CDR-L3": "QQYHRLPLS", "log10 Kd (nM) by replicate": "-0.22 -0.44 -0.28 -0.14 -0.24 -0.23", "mean, log10 nM": "-0.26", "empty controls": "0 of 18"}
{"CDR-L1": "KLPQSNLYESRNKNSVA", "CDR-L2": "NASTREV", "CDR-L3": "QQYHRLPLS", "log10 Kd (nM) by replicate": "0.15 -0.23 -0.42 -0.50 -0.44 -0.15", "mean, log10 nM": "-0.27", "empty controls": "0 of 18"}
{"CDR-L1": "KLSQSMLYESRNKNSVA", "CDR-L2": "HASQRES", "CDR-L3": "QQYHRLPLS", "log10 Kd (nM) by replicate": "-0.02 -0.07 -0.11 -0.17 -0.19 0.19", "mean, log10 nM": "-0.06", "empty controls": "0 of 18"}
{"CDR-L1": "KLSQSVLYEDRMKNSVA", "CDR-L2": "NASTRES", "CDR-L3": "QQYHRLPLS", "log10 Kd (nM) by replicate": "0.31 -0.01 0.12 0.10 0.39 0.23", "mean, log10 nM": "0.19", "empty controls": "0 of 18"}
{"CDR-L1": "KVSQSDLYESRNKNSVA", "CDR-L2": "EASTRES", "CDR-L3": "QSYHRLPLS", "log10 Kd (nM) by replicate": "0.18 0.11 0.12 -0.14 0.05 0.20", "mean, log10 nM": "0.09", "empty controls": "0 of 18"}
{"CDR-L1": "KVSQSHLYESRNKNSVA", "CDR-L2": "DASTRCS", "CDR-L3": "QQYHRLPLS", "log10 Kd (nM) by replicate": "0.00 -0.05 -0.07 -0.11 -0.05 -0.02", "mean, log10 nM": "-0.05", "empty controls": "4 of 18 (2.64)"}
{"CDR-L1": "KLSQSVLYESRVKNAVA", "CDR-L2": "NASTRES", "CDR-L3": "QQYHRLPLS", "log10 Kd (nM) by replicate": "-0.17 -0.24 -0.16 -0.32 -0.18 -0.05", "mean, log10 nM": "-0.19", "empty controls": "0 of 18"}
{"CDR-L1": "KLSQSVLYESRNPNSVA", "CDR-L2": "NASTRLS", "CDR-L3": "QQYHRLPLS", "log10 Kd (nM) by replicate": "-0.39 -0.18 -0.42 -0.46 -0.43 -0.35", "mean, log10 nM": "-0.37", "empty controls": "1 of 18 (1.53)"}
{"CDR-L1": "KSQQSVPYESRNKNSVA", "CDR-L2": "EASTRES", "CDR-L3": "QQYHRLPLS", "log10 Kd (nM) by replicate": "0.08 -0.03 0.20 0.23 -0.14 0.23", "mean, log10 nM": "0.09", "empty controls": "0 of 18"}
{"CDR-L1": "KLSQSELYESRNKNSVA", "CDR-L2": "EASTREE", "CDR-L3": "QQYHRLPLS", "log10 Kd (nM) by replicate": "-0.08 -0.05 -0.31 -0.24 -0.25 -0.17", "mean, log10 nM": "-0.18", "empty controls": "2 of 18 (2.42)"}

A selection of 2 entries from above:

CDR-L1	CDR-L2	CDR-L3	log10 Kd (nM) by replicate	mean, log10 nM	empty controls
KVQQSWLYESRNKNSVA	DASQRES	QQYHRLPLS	-0.21 -0.01 -0.42 -0.52 -0.37 0.05	-0.25	1 of 18 (1.86)
KVSQSHLYESRNKNSVA	NASQRES	QQYHRLPLS	0.11 -0.07 0.03 -0.26 -0.18 0.04	-0.06	1 of 18 (4.61)